Assay outcomes deposited in PubChem by National Center for Advancing Translational Sciences (NCATS).
The list is not random: actives were taken first. Their share in the collection is about 0.43%.
EPAC2 antag = EPAC2 (human) antagonism. Q8WZA2. EPAC2 GEF exchange of Rap1B-BODIPY-GDP, fluorescence. Potency, µM (titrated, usually from 114 µM), hits mostly inhibitors. 0.18% of 360,000 active. AID 720708; also: nearly all actives have a fitted effect of over 45% in size
Rango dissoc inh = inhibitors of RanGTP-induced Rango-importin beta complex dissociation; O95149+P62826; Biochemical FRET Rango-importin beta, RanGTP-induced dissociation; Potency, µM (series often up to 46.1 µM); 0.071% of 340,000 active; AID 540253; calls by dose curve; also: nearly all actives have a fitted effect of over 45% in size
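Quantitative HTS using a FRET biosensor: 0.1 uM Rango, 0.25 uM importin beta, 0.6 uM Ran, 2 mM GTP, 0.2 uM RCC1 final, PBS with DTT, Tween-20 and BSA. Post-read taken 45 min after Ran addition.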
EPAC1 agonist = EPAC1 (human) agonism; O95398; EPAC1 agonist qHTS, biochemical assay; response scale: 100% = response to 6.5 mM cAMP; Potency, µM (top dose mostly 154 µM), actives largely listed as activators; 0.073% of 360,000 active; AID 720707; also: nearly all actives have a fitted effect of over 60% in size
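Read-out is the fluorescence drop as BODIPY-GDP leaves Rap1B (480 nm excitation, 540 nm emission), recorded every 5 minutes over 30 minutes. Reactions held 100 nM EPAC1, 250 nM Rap1B–BODIPY-GDP and 50 uM GDP, with 6.5 mM cAMP setting full activation.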
Rango complex inh = prevents formation of the Rango-importin beta complex; Q14974; Rango CFP/YFP FRET sensor + importin beta, 45 min; Potency, µM (top dose mostly 92.2 µM); 0.031% of 340,000 active; calls by dose curve; also: nearly all actives have a fitted effect of over 15% in size
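FRET biosensor (snurportin 1 IBB flanked by EYFP and cerulean), 50 nM, with compound 5 min, then 0.125 microM importin beta in PBS, 1 mM DTT, 0.02% Tween-20, 0.1% BSA. CFP/YFP ratio read after 45 min at room temperature; pre-read flags interference.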
EPAC1 antagonist = blocks human EPAC1 exchange factor; 0.14% of 360,000 active; Potency, µM (highest dose often 115 µM), hits mostly inhibitors; O95398; EPAC1 GEF assay, Rap1b-BODIPY-GDP exchange fluorescence; AID 720709; also: nearly all actives have a fitted effect of over 50% in size
EPAC2 agonist = activates human EPAC2 exchange factor. Potency, µM (doses to about 154 µM), hits mostly activators. Q8WZA2. EPAC2 activation, biochemical qHTS; response scale: 100% = 6.5 mM cAMP response. 0.079% of 360,000 active; also: nearly all actives have a fitted effect of over 50% in size
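In this primary screen, activation is scored as increased exchange of BODIPY-GDP from Rap1B by 100 nM EPAC2, with 50 uM GDP as competitor. Signal is normalized to the 6.5 mM cAMP agonist control.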
A number is an active result; i = inactive; ? = inconclusive; nt = no result given. Unless noted, calls follow the shape of the dose curve; as a rule, active = well fitted curve in the direction sought with a large enough effect; inconclusive = small, poorly fitted or top-dose-only effect, or another doubt; inactive = no such curve, though single readings can be large; an effect the other way counts as inactive or inconclusive.

SMILES | EPAC2 antag | Rango dissoc inh | EPAC1 agonist | Rango complex inh | EPAC1 antagonist | EPAC2 agonist
O=C(Nc1sc2c(c1C(=O)O)CCCC2)c1ccc(Cl)cc1 | i | i | i | i | 28µM | i
CC(C)Cc1csc(NC(=O)c2ccccc2Cl)c1C(=O)O | i | i | i | i | i | i
CCN1/C(=C/c2ccc3cccc(C)c3[n+]2CC)Sc2ccccc21 | i | i | i | 52µM | i | i
Cc1c(O)c2ccccc2n(-c2ccccc2)c1=O | i | i | i | i | i | i
CC(C)(C)c1c(Cl)c(O)c(-c2ccccc2)c(=O)n1-c1ccccc1 | i | i | i | i | 79µM | i
COC(=O)[C@@]12C[C@@H](CC(=O)NCCCCc3ccccc3)C(=O)N(Cc3ccco3)C1=CCC(C)(C)C2 | i | nt | i | nt | i | i
CC(CCC(C)C(C)(C)C)[C@@H]1CC[C@H]2C3C[C@H](OS(O)(=S)=S)[C@H]4C[C@H](OS(O)(=S)=S)[C@@H](OS(O)(=S)=S)C[C@]4(C)[C@H]3CC[C@]12C (stereo not given in full) (tested in a mixture with another compound) | 20µM | i | i | i | 16µM | i
CC(CCC(=O)NN)C1CCC2C3CCC4CC(O)CCC4(C)C3CCC12C (stereo not given) | i | i | i | i | i | i
Brc1cc2c(cc1CSc1ncccn1)OCO2 | 35µM | i | i | i | i | i
CN1C(=O)c2cccc3c(S(N)(=O)=O)ccc1c23 | i | 0.58µM | i | ? | i | i
O=C(C(=O)N1CCN(C(=O)c2ccco2)CC1)c1ccccc1 | i | nt | i | nt | i | i
CCOc1cccc(CNc2ccc(O)cc2)c1OCc1ccccc1Cl | i | i | i | i | 28µM | i
CCOc1cccc(CNc2ccc(O)cc2)c1OCc1ccc(Cl)cc1Cl | ? | i | i | i | 50µM | i
O=C1NC(=S)SC1=Cc1cc(Br)ccc1O | 79µM | i | i | i | 56µM | i
O=C1NC(=S)S/C1=C\c1coc2ccc(O)cc2c1=O | 35µM | ? | i | i | 56µM | i
O=C1NC(=S)SC1=Cc1ccc(F)cc1 | i | i | i | i | i | i
O=C1NC(=S)SC1=Cc1ccc(Cl)cc1 | 50µM | i | i | i | ? | i
O=C1NC(=S)SC1=Cc1ccccc1Br | 40µM | i | i | i | 32µM | i
O=C1NC(=S)S/C1=C\c1ccc2ccccc2c1 | ? | i | i | i | i | i
O=C(NC1CCCCC1)C(c1ccnc2ccccc12)n1c(=O)c(-c2ccccc2)nc2ccccc21 (stereo not given) | i | nt | i | nt | i | i
Cc1ccc(C)c(/C=C/C(=O)c2ccccc(=O)c2O)c1 | i | ? | i | ? | i | i
Cc1ccc(/C=C/C(=O)c2ccccc(=O)c2O)c(C)c1 | i | 8.2µM | i | ? | ? | i
CC(C)(C)c1ccc(C(=O)N2CCC2(C)C(=O)Nc2ccc3nc[nH]c3c2)cc1 (stereo not given) | i | nt | i | nt | i | i
O=C(N/N=C/c1ccc(Sc2ccccn2)o1)c1cc2ccccc2cc1O | i | i | i | i | 56µM | i
O=C(c1[nH]c(C(F)(F)F)nc1-c1ccccc1)N1CCN(C(=O)C2CCCO2)CC1 (stereo not given) | i | nt | i | nt | i | i
COc1cc(/C=N/NC(=O)C(Cc2c[nH]c3ccccc23)NC(=O)OCc2ccccc2)cc([N+](=O)[O-])c1O (stereo not given) | i | i | i | ? | 79µM | i
COc1cc(/C=N/NC(=O)C(Cc2c[nH]c3ccccc23)NC(=O)OCC(C)C)cc([N+](=O)[O-])c1O (stereo not given) | i | i | i | i | i | i
O=C(Nc1ccc2c(c1)OCO2)c1cc(-c2cccnc2)nc2ccccc12 | i | i | i | i | i | i
Cc1ccc(-c2cc(C(=O)Nc3ccc4c(c3)OCCO4)c3ccccc3n2)cc1 | i | i | i | i | i | 7.9µM
